Reference: patent US20260014194A1, “COMBINATIONS COMPRISING METAP2 INHIBITORS FOR THE TREATMENT OF CANCER” (SynDevRx, Inc., priority 2022, published 2026)

Assay: Body weight, adipose tissue mass and tolerability in E0771 tumor-bearing high-fat diet mice
Conditions: eribulin mesylate 2 mg/kg, IP/Q4D; multiple early terminations; FIG. 4

In the case of `C=C1C[C@@H]2CC[C@@]34C[C@H]5O[C@H]6[C@@H](O3)[C@H]3O[C@H](CC[C@@H]3O[C@H]6[C@H]5O4)CC(=O)C[C@@H]3[C@@H](OC)[C@@H](C[C@H](O)CN)O[C@H]3C[C@H]3O[C@@H](CC[C@@H]1O2)C[C@@H](C)C3=C`, the Tolerability is reported as “not well tolerated”.
